Measured values published in patent US20020197702A1 (IDUN PHARMACEUTICALS, published 2002).

T1: recombinant murine caspase-1 (mouse, UniProt P29452 119-402, limits assumed)
T1 sequence (looked up): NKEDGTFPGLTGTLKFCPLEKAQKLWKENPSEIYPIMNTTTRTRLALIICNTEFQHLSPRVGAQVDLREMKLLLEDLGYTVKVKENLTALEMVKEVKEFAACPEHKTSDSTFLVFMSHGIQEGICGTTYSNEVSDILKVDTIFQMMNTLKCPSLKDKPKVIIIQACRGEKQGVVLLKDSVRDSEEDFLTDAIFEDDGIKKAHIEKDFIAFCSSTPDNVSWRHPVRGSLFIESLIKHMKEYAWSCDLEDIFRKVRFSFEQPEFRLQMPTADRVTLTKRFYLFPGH

T2: 697-neo HM (spontaneous activity) caspase (human, UniProt P42574 14-175, limits assumed)
T2 sequence 1: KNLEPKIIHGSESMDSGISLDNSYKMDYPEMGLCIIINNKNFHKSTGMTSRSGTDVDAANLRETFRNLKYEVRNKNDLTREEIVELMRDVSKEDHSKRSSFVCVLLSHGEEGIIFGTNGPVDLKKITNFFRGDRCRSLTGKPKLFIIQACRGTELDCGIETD
T2 sequence 2: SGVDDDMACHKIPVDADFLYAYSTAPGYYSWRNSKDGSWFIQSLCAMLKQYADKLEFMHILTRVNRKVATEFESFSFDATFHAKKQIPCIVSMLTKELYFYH

T3: 697-neo HM (caspase-1 treated) caspase (human, UniProt P42574 14-175; P42574 176-277, limits assumed)
T3 chain 1: T2 sequence 1
T3 chain 2: T2 sequence 2

T4: 697 Bcl-2 HM (caspase-1 treated) caspase (human, UniProt P42574 14-175; P42574 176-277, limits assumed)
T4 chain 1: T2 sequence 1
T4 chain 2: T2 sequence 2

B1: YVAD-ald (peptide)
peptide: YVAD
modifications: C-terminal aldehyde; N-terminal acetyl (printed as acYVAD-aldehyde in paragraph 147)

Tests used:
Assay in all cases: cell-based or functional assay
[1] = molecular target: T1, recombinant murine caspase-1
[2] = molecular target: T2, 697-neo HM (spontaneous activity) …
[3] = molecular target: T3, 697-neo HM (caspase-1 treated) caspase
[4] = molecular target: T4, 697 Bcl-2 HM (caspase-1 treated) caspase

Binder	IC50, inhibition of caspase-1 [1] [nM]	IC50, inhibition of DEVD-amc cleavage [2] [nM]	IC50, inhibition of DEVD-amc cleavage [3] [nM]	IC50, inhibition of DEVD-amc cleavage [4] [nM]
B1	1			
DEVD (C-terminal aldehyde) [DEVD-ald]		2.3	2.8	1.3
